Molecular target: Macrophage metalloelastase (Homo sapiens, UniProt P39900)
Assay: Inhibition of MMP12 by fluorimetric assay
How it was run: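 Enzyme source was the catalytic domain of each MMP. Inhibition was reported as Ki values.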

Amino acid sequences for entries named in this document (tags omitted). A change or cut given only in a name is not applied to a line headed by its entry.
UniProt P39900: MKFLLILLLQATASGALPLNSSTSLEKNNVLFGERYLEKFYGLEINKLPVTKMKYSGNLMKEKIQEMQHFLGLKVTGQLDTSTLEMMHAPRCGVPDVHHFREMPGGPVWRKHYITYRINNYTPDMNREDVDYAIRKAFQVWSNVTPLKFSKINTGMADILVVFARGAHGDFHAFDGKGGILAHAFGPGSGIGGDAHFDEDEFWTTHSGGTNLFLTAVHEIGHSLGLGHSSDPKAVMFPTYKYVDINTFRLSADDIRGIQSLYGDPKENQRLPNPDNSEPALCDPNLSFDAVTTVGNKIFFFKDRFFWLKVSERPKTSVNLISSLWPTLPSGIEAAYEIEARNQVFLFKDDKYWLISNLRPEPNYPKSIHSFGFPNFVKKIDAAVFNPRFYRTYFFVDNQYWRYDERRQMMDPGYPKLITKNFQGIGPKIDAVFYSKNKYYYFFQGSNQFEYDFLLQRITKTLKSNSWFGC

- Ki: 0.031 µM
SMILES: O=C(CN(CCO)S(=O)(=O)c1ccc(-c2ccccc2)cc1)NO

From ChEMBL document CHEMBL1629518, “Structure-based approach to nanomolar, water soluble matrix metalloproteinases inhibitors (MMPIs)” (Eur J Med Chem, 2010)
